Laboratory results reported in patent US20240109881A1, “Heteroaryl Compounds as Ligand Directed Degraders of IRAK4” (Bristol-Myers Squibb Company, priority 2022, published 2024).

Amino acid sequences for entries named in this document (tags omitted).
UniProt Q9NWZ3, whole entry: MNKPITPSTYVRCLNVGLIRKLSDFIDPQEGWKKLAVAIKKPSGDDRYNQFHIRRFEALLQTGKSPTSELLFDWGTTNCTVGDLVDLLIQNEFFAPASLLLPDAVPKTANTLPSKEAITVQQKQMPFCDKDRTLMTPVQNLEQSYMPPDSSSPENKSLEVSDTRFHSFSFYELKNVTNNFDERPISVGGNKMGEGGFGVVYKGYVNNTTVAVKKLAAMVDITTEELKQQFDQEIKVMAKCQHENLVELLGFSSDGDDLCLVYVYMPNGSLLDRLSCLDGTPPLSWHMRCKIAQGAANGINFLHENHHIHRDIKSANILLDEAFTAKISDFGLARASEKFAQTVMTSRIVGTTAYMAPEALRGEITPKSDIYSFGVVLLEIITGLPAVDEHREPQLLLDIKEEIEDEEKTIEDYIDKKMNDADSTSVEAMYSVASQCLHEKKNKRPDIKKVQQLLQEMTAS

Target: IRAK4 (Homo sapiens, UniProt Q9NWZ3)
Assay: LVL THP1 HTRF (THP1 Homogeneous Time Resolved Fluorescence)
Settings: for LVL THP1 HTRF YMIN: THP1 cells, 18 h incubation with compound; for EC50: read-out: LVL THP1 HTRF EC50, THP1 cells, 18 h incubation with compound
Experimental: Cell culture media was prepared in a tissue culture hood in a sterile environment by adding 10% FBS and 1% Penicillin Streptomycin to 500 mL no phenol red RPMI 1640 media. The media was filtered through a Nalgene Bottle Top Filter and stored at 4° C.
For Homogenous Time Resolved Fluorescence (HTRF) assays, a Cisbio HTRF kit was used, which included: Lysis Buffer #1 4×, Blocking Reagent #3 100×, 20× Antibody 1 (Anti-IRAK4 d2), 20× Antibody 2 (Anti-IRAK4 k), and Detection Buffer.
The THP1 plates were prepared by the following method. For each dosing plate, a duplicate for CTG assay was prepared. Two THP-1 T-175 flasks could be used to plate one 384 well plate. The cells were collected from two T-175 flasks into 200 mL centrifuge tubes and spun down at 1200 rpm for 10 min. The supernatant was removed completely and cells were resuspended in 7.5 mL cell culture media. To 5 μL of the cell suspension was added 25 μL of media and 30 μL of Trypan Blue stain. The cells were counted using countess (automated cell counter, Thermo Fisher Scientific) twice and the viability and live cell count was recorded. The actual cell count was […] the live cell count. Based on the count, a cell suspension was prepared in colorless RPMI media for a final concentration of 7.5e6 cells/mL. Using Standard cassette multidrop combi, 20 μL of the 7.5e6 cells/mL cell stock was added to entire 384 well plate but for top half of column 1 (negative control) The multidrop combi was always primed to achieve a steady flow and washed after use with 20 mL de-ionized water followed by 20 mL alcohol. The cells were incubated in 5% CO2 incubator at 37° C.
Dosing was conducted using the following method. To dose assay plates and CTG plate was added 20 nL of compounds in DMSO using Echo (Beckman Coulter), and the plates were incubated at 37° C. for 18 h. The compound plates were spun at 1200 rpm for 1 min before dosing. The compound plate was sealed and properly stored during incubation.
After dosing, an HTRF assay was conducted using the following method. The treatment plates (IRAK4_HTRF) were centrifuged at 600 g for 10 min. Using CyBio Felix, Automated liquid handler (Analytikjena), 13 μL cell culture media was removed. To all columns, 7.5 μL lysis buffer was added, and an additional 7.5 μL of lysis buffer was added to column 1(top half, negative control). The plate was incubated on a shaker at room temperature for 2 h. The plate was spun down at 600 g for 5 min. Custom 20×IRAK4 Antibody obtained from CISBIO Anti-IRAK4-d2 (acceptor Ab) and Anti-IRAK4-K (donor Ab) were diluted to 1× antibody mix Using a multichannel repeater, 4 μL of 1× antibody mix was added to each wellThe plate was spun down at 600 g for 5 min and incubated in the dark at room temperature for 18 h The next day (after 18 hrs), HTRF assay plate was spun down at 600 g for 5 min and read at 665/615 nm using a Envision plate reader.

Row | Structure (SMILES) | LVL THP1 HTRF YMIN [%] | EC50 [nM]
1 | CC(C)c1nc2c(cnn2-c2cc(N[C@H](C)C#N)c(C(=O)N[C@H]3CC[C@H](CCN4CCN(c5ccc(C6CCC(=O)NC6=O)cc5)CC4)CC3)cn2)cc1C#N (stereo partly drawn) | <0.5 | 48
2 | COc1cc(C2CCN(CC[C@H]3CC[C@H](c4cn(-c5cnc(-n6ncc7cc(C#N)cnc76)cc5N[C@H](C)C#N)nn4)CC3)CC2)ccc1N1CCC(=O)NC1=O | 8.9 | 100
3 | C[C@H](C#N)Nc1cc(-n2ncc3cc(C#N)c(N)nc32)ncc1C(=O)N[C@H]1CC[C@H](CCN2CCN(c3ccc(C4(C)CCC(=O)NC4=O)cn3)[C@@H](C)C2)CC1 (stereo partly drawn) | 34.7 | 355

The next compounds have a lower EC50 than those just listed; values first:

Row | LVL THP1 HTRF YMIN [%] | EC50 [nM] | Structure (SMILES)
4 | 1.6 | 7.3 | C[C@H](C#N)Nc1cc(-n2ncc3cc(C#N)c(N4C[C@H]5C[C@@H]4CO5)nc32)ncc1-n1cc([C@H]2CC[C@H](CCN3CCC(c4ccc(C5(F)CCC(=O)NC5=O)cc4)CC3)CC2)nn1 (stereo partly drawn)
5 | 2.7 | 32 | C[C@H](C#N)Nc1cc(-n2ncc3cc(C#N)c(C4CC4)nc32)ncc1C(=O)N[C@H]1CC[C@H](CCN2CCN(c3ccc(C4CCC(=O)NC4=O)cc3)CC2)CC1 (stereo partly drawn)
6 | −3.1 | 0.6 | C[C@H](C#N)Nc1cc(-n2ncc3cc(C#N)c(N)nc32)ncc1-n1cc([C@H]2CC[C@H](CCN3CCN(c4ccc(N5CCC(=O)NC5=O)cc4)[C@H](C)C3)CC2)nn1
